The source of these data is publication PMC10388794 (Journal of Enzyme Inhibition and Medicinal Chemistry, 2023).

By UniProt entry, the sequences of proteins in these tests, tags left out. Residues count along the entry.
UniProt P06276, 29-602: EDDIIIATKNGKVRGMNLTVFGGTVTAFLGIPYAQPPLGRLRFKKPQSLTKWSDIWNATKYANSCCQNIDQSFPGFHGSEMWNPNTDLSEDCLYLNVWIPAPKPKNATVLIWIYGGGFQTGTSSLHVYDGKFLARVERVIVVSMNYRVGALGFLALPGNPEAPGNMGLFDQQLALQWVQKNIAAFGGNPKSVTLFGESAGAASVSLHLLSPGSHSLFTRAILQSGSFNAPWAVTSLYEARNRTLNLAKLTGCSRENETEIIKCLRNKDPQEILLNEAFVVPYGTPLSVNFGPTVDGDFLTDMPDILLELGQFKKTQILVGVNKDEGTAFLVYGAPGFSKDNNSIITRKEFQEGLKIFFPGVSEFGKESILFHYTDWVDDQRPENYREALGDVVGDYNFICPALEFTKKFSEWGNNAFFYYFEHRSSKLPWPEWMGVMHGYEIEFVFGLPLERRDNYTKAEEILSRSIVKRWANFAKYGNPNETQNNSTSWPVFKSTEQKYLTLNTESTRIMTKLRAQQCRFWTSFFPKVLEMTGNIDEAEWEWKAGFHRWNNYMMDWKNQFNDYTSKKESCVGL

This assay has as its target hBuChE from human serum (Homo sapiens, UniProt P06276). Description: hBuChE inhibition assay. The format is biochemical.

The molecule `CCN(C)C(=O)Oc1cccc([C@H](C)N(C)C)c1` [Rivastigmine] came in with an IC50 of 6.18 ± 1.05 µM.

By IC50 is commonly meant the concentration that gives 50% inhibition. Low values mean greater potency in that assay, high ones weaker potency in that assay.
